This passage reports IC50 results from patent US8791100B2 (Novartis AG, priority 2010, dated 2014).

By UniProt entry, the sequences of proteins in these tests, tags left out.
UniProt P21453, whole entry: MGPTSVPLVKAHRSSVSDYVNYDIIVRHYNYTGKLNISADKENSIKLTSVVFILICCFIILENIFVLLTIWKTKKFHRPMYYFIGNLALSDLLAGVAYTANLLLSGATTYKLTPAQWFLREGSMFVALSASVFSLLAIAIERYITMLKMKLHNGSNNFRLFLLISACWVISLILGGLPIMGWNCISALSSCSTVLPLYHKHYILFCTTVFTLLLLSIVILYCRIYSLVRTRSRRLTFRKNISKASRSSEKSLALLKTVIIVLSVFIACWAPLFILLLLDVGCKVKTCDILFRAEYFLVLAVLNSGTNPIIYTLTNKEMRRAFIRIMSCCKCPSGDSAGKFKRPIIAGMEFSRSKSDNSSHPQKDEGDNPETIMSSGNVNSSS

What is called IC50 is the point on the concentration scale where inhibition reaches its midpoint.

Each structure is given as a SMILES string.

For the test, the target named is human S1P1 receptors (Homo sapiens (Human), UniProt P21453). Briefly: Human S1P1 Receptor Calcium FLIPR Antagonist Assay (HeLa Gα16 S1P1). The following applies: relative antagonism vs probing agonist GNF-AC-1 at EC80, HeLa-S1P1/Gα16 cells. The class given is cell-based. An excerpt: Human S1P1 Receptor Calcium FLIPR Antagonist Assay
The assay measures intracellular changes of Ca^2+ mediated by the synthetic probing agonist 3-{[2-(2-Trifluoromethyl-biphenyl-4-yl)-benzo[b]thiophen-5-ylmethyl]-amino}-propionic acid (GNF-AC-1) in the HeLa-S1P1/Gα16 cell clone 1: HeLa (human cervix carcinoma, ATCC CCL2) cells stably expressing N-terminally myc-tagged human S1P1 receptors (GenBank™ accession No. NM_001400; UNIPROT P21453) and promiscuous Gα16 protein (GenBank™ accession number M63904, Swissprot P30679) are cultured at 37° C., 5% CO2, and 95% relative humidity. The cells are plated in 384 well black plates (10′000 cells per well). After 24 hours the cells are loaded with Fluo-4-AM (1.6 μM in HBSS and 2.5 mM probenicid) for 1 hour at 37° C. After washing, the cells are transferred to the FLIPR. The test compounds are added at different concentrations (≦100 μM) in HBSS in the presence of 0.1% BSA and changes in fluorescence are recorded (indication of agonism). The probing agonist is added 20-30 minutes afterwards to the wells at a concentration giving 80% of the maximal activity (EC80). After each addition, time points are collected as follows: 20 time points (2 seconds) before the addition of the agonist (Fmin) and 60 time points (1 or 2 seconds) after the addition of the probing agonist. This allows the determination of the maximal fluorescence (Fmax). The ratio (Fmax−Fmin)/Fmin is plotted against the log of the concentration of the test compounds and the IC50 (relative antagonism) is calculated using the XLfit-4 software. […] A concentration-response curve of the probing agonist is determined on each plate in parallel.
In the case of `CC[C@@H](Nc1cc(CN2CCC(C)(C(=O)O)C2)c(Cl)cn1)c1ccc(Cl)c(C)c1` (single isomer, unassigned) [Example 86], the IC50 was 1.2 nM.
Turning to `CC[C@@H](Nc1ccc(C)c(CNCCC(=O)O)c1)c1cc(C)c(Cl)c(C)c1` [Example 45, 3-{5-[(R)-1-(4-Chloro-3,5-dimethyl-phenyl)-propylamino]-2-methyl-benzylamino}-propionic acid], the IC50 was 1.2 nM.
For `CC[C@@H](Nc1ccc(Cl)c(CNCCC(=O)O)c1)c1cc(C)c(Cl)c(C)c1` [Example 53, 3-{2-Chloro-5-[(R)-1-(4-chloro-3,5-dimethyl-phenyl)-propylamino]-benzylamino}-propionic acid], the half-maximal inhibitory concentration (IC50) is 1.2 nM.
As for `CC[C@@H](Nc1cc(CN2CC[C@@H](C(=O)O)C2)c(Cl)cn1)c1cc(C)c(Cl)c(C)c1` [Example 59, (R)-1-{5-Chloro-2-[(R)-1-(4-chloro-3,5-dimethyl-phenyl)-propylamino]-pyridin-4-ylmethyl}-pyrrolidine-3-carboxylic acid], the IC50 was found to be 1.2 nM.
As to `CC[C@@H](Nc1ccc(Cl)c(CN2CC(C)(C(=O)O)C2)c1)c1cc(C)c(Cl)c(C)c1` [Example 66, 1-{2-Chloro-5-[(R)-1-(4-chloro-3,5-dimethyl-phenyl)-propylamino]-benzyl}-3-methyl-azetidine-3-carboxylic acid], the IC50 turned out to be 1.2 nM.
For `Cc1cc([C@H](Nc2cccc([C@H](C)NCCC(=O)O)c2)C(F)(F)F)ccc1Cl` [Example 73, 3-((S)-1-{3-[(S)-1-(4-Chloro-3-methyl-phenyl)-2,2,2-trifluoro-ethylamino]-phenyl}-ethylamino)-propionic acid], the IC50 turned out to be 1.2 nM.
